## Apparent affinities of Ab-91 variants for a coronavirus HR2 peptide

The target is the same throughout: PDVDLGDISGINAS, from the HR2 region of SARS-CoV-2 spike.

Parent scFv Ab-91: VL joined to VH by a 15-residue (Gly4Ser)3 linker. Changes lie in the heavy chain CDRs alone.
VL: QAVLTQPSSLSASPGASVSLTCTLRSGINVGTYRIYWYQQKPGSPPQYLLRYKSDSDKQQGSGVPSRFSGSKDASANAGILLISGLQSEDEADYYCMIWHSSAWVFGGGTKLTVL
VH: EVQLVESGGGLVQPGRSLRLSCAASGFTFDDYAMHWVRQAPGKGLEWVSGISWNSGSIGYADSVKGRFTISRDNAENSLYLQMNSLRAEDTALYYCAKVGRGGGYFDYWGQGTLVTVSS

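Library AAYL51 holds single substitutions and randomly drawn double and triple substitutions in the CDRs. AlphaSeq pools MATa yeast showing the antibodies with MATalpha yeast showing the peptide. Binding brings cells together so that they mate, and sequencing counts the barcode pairs among the diploids. Scores were corrected for input abundance and mapped to Kd with protein pairs of known affinity run in the same pool. Each pool was mated in three replicate cultures.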

Variants are written as CDR1, CDR2 and CDR3 of the heavy chain (limits as in the source). Parent: GFTFDDYAMH, GISWNSGSIGYADSVK, VGRGGGYFDY.
Values are log10 of the apparent Kd in nM; lower means stronger binding.
A mean of the replicates is given; it leaves out those without a signal.
A pair that was not seen in that replicate is written "n.d."; this usually means weak binding, but a binder can also be missed.
Three control strains display no target. For library AAYL51, 21% of the pairings with them gave a signal, with a median of 4.54 and one signal in twenty below 3.26, so weak values seen in few replicates may be background. For each scFv, signals with the empty controls are counted beside the result, with their mean in brackets.
Parent in this assay: reference entry 1.86, copy in this library 0.88.

CDR-H1,CDR-H2,CDR-H3,"replicates, log10 nM","log10 Kd (nM), mean",control signals
GFTFDDYAMY,GISWISGSNGYADSVK,VGRGGGYFDY,n.d. n.d. n.d.,n.d.,1/9 (3.67)
GFTFDDYAMH,GISFNSGSIGYADSVK,VFRGGGCFDY,4.80 4.31 n.d.,4.56,8/9 (4.99)
NFNFDDYAMG,GISWNSGSIGYADSVK,VGRGGGYFDY,5.43 6.53 5.44,5.80,4/9 (4.60)
GFTFQDYAMH,GISWNSGSIGEADSVK,VGRGGGYFDY,0.28 0.69 -0.11,0.29,0/9
GFVFDDYAMH,LISWRSGSIGYADSVK,VGRGGGYFDY,4.88 5.06 n.d.,4.97,2/9 (4.90)
GFTFDDYAMH,GISWNSGAIGYAESVK,VGRGNGYFDY,1.20 1.13 0.82,1.05,3/9 (3.87)
FFTFHDYAMH,GISWNSGSIAYADSVK,VGRGGGYFDY,5.36 n.d. n.d.,5.36,1/9 (2.97)
GFTFDDYAMI,GISWNSGMIGEADSVK,VGRGGGYFDY,n.d. n.d. n.d.,n.d.,1/9 (3.20)
GFTFDDSAMH,GISWNSGSIGEADSVK,VGRDGGYFDY,n.d. n.d. n.d.,n.d.,0/9
GFTFDDGAMK,GISWNSGSIGYADSVK,VGRGGGYWDY,4.72 6.99 n.d.,5.86,3/9 (4.83)
GFTFDDYAMH,GISWNSGSVGYADSNK,VGRGGGYLDY,3.39 4.00 3.25,3.54,0/9
GFTFDDYRMH,GISWNSGSIGYADSVK,WGRFGGYFDY,n.d. 4.87 n.d.,4.87,0/9
GNTYDDWAMH,GISWNSGSIGYADSVK,VGRGGGYFDY,n.d. n.d. n.d.,n.d.,2/9 (3.73)
GFTFDDYAMH,GISWNSGSIGEADSVK,VGRGGGYFDY,2.55 2.96 3.09,2.87,2/9 (6.08)
GFTFDDYAMH,GISWNSGSMGYADSVK,VGRGGGYFDY,n.d. n.d. n.d.,n.d.,1/9 (3.06)
GFTFDDMAMH,GISWNSGSIGYAHSVK,VGCGGGYFDY,4.78 n.d. n.d.,4.78,1/9 (3.77)
GFTFEDYAMH,GISWNSGSIGYADSVK,VGRGGGLFGY,4.66 n.d. n.d.,4.66,0/9
GFTFDDYAMH,GIMWNSGSIGYAYSVK,VGRGFGYFDY,n.d. n.d. n.d.,n.d.,0/9
GFVFDDYAMH,GISWNSGSIGMADSMK,VGRGGGYFDY,1.84 2.02 1.90,1.92,2/9 (5.20)
GFTFDDYAMH,PISWNSGSITYADSVK,VGRGGGYFIY,4.42 4.80 5.55,4.92,9/9 (5.13)
GFTFDDYAMH,GISWNSGSIGYADSVK,VERSGGYIDY,1.91 2.46 1.43,1.93,2/9 (3.08)
GFTFDDYAMH,GISWNSGFIGYADSVK,DGRGGGYEDY,n.d. 5.70 3.39,4.55,1/9 (4.23)
GWTFDDYAMH,GISWNSGFIGYADSVK,YGRGGGYFDY,5.07 5.70 n.d.,5.39,5/9 (4.73)
GFTRDDYAPH,GISWNSGSIGYADSVK,VGRFGGYFDY,n.d. n.d. n.d.,n.d.,1/9 (1.74)
GFTFDDYAMH,GIGWNSQSVGYADSVK,VGRGGGYFDY,0.73 0.69 0.13,0.51,8/9 (4.86)
GFTFDDVAMH,GISWNSGSIGTADSVK,VGRGGGYFDQ,2.68 2.53 3.38,2.86,0/9
GFTFDDYAMH,GISWNSPSIGYADSVR,VGRGGGYFCY,n.d. n.d. 4.59,4.59,2/9 (4.00)
GFTFDDYAMH,IISWNSGSIGWADSVK,VGRGFGYFDY,4.66 n.d. n.d.,4.66,1/9 (4.25)
GFTFDDAAMH,GISWNSGSRGYADSVK,VKRGGGYFDY,2.64 2.51 1.81,2.32,0/9
GFTEDDYAMH,GISWNSGSIGYADSVK,VGRGSGYHDY,n.d. n.d. n.d.,n.d.,0/9
GFTFDEYAMH,GISWNSGSNGYEDSVK,VGRGGGYFDY,3.28 3.90 3.64,3.61,3/9 (4.88)
GFTFDDNAMH,GISWNSGSIGYADSVK,VPRGGGYCDY,3.66 n.d. n.d.,3.66,2/9 (4.53)
GFTFLEYAMH,AISWNSGSIGYADSVK,VGRGGGYFDY,n.d. n.d. n.d.,n.d.,0/9
GFTFDDYAMH,GISWNSGSIGYHDSVK,VGRGGDYQDY,n.d. n.d. n.d.,n.d.,1/9 (4.39)
GFTFMDYAMH,GISWNDGSIGYADSVK,VGRGMGYFDY,n.d. n.d. n.d.,n.d.,0/9
GFRFDDYAMH,TISWNSGSIGYADSVK,VGRGGGYFNY,5.61 4.86 n.d.,5.23,5/9 (4.53)
GFTFDDYPMH,GISWNSGMIGYADSVK,FGRGGGYFDY,2.61 2.42 2.41,2.48,7/9 (4.49)
GFTFDDYAMH,GISWNSGPIGYADSVK,VGRGGGYIDY,n.d. n.d. n.d.,n.d.,1/9 (5.30)
GFTNDDYAMH,GISWNSGSIGYADSVK,VGWGGGWFDY,4.67 n.d. 5.26,4.97,1/9 (5.01)
GFTFDDYAMH,GISWNSGCIGYADSVK,VGRGGGYFDY,3.31 4.58 3.04,3.64,3/9 (4.25)
GFTFDDYAMH,GISWNSLSIGYADSVK,VGDGWGYFDY,4.09 n.d. n.d.,4.09,1/9 (3.73)
AFTFTDYAMH,GISWNSWSIGYADSVK,VGRGGGYFDY,4.63 5.33 n.d.,4.98,7/9 (4.60)
GFTWDDYPMH,GIWWNSGSIGYADSVK,VGRGGGYFDY,n.d. n.d. n.d.,n.d.,0/9

A selection of 6 entries from above:

| CDR-H1 | CDR-H2 | CDR-H3 | replicates, log10 nM | log10 Kd (nM), mean | control signals |
|---|---|---|---|---|---|
| GFTFDDYAMH | GISWNSLSIGYADSVK | VGDGWGYFDY | 4.09 n.d. n.d. | 4.09 | 1/9 (3.73) |
| GFRFDDYAMH | TISWNSGSIGYADSVK | VGRGGGYFNY | 5.61 4.86 n.d. | 5.23 | 5/9 (4.53) |
| GWTFDDYAMH | GISWNSGFIGYADSVK | YGRGGGYFDY | 5.07 5.70 n.d. | 5.39 | 5/9 (4.73) |
| GFTFDDYAMH | GISWNSPSIGYADSVR | VGRGGGYFCY | n.d. n.d. 4.59 | 4.59 | 2/9 (4.00) |
| GFTFDDGAMK | GISWNSGSIGYADSVK | VGRGGGYWDY | 4.72 6.99 n.d. | 5.86 | 3/9 (4.83) |
| GFTFDDYPMH | GISWNSGMIGYADSVK | FGRGGGYFDY | 2.61 2.42 2.41 | 2.48 | 7/9 (4.49) |

The measurements come from Engelhart et al. 2022 (doi:10.1038/s41597-022-01779-4) through the FLAb antibody collection.